Values of other authors in patent US7232798B2, “Neuroprotection and neuroegenisis by administering cyclic prolyl glycine” (priority 2001, dated 2007).

Conditions: administered intraperitoneally and intravenously; unpublished results; cited from earlier work

## glycine-proline-glutamate [GPE]
  effect of high concentrations on the brain: severe brain damage
